Assay results from patent US12172975B2, “1H-indazole carboxamides as receptor-interacting protein kinase 1 inhibitors (RIPK1)” (BRISTOL-MYERS SQUIBB COMPANY, priority 2018, dated 2024).

Test system: MLKL phosphorylation in HT29-L23 human colorectal adenocarcinoma cells
Test: MLKL Phosphorylation High-Content Assay
Assay type: cell-based
Settings: read-out: pMLKL (IC50), necroptosis induced with TNFα, SMAC mimetic and Z-VAD, 6 h

## [2H]C([2H])([2H])Oc1ncc(-c2ccc3c(C(=O)NC4CC4)n[nH]c3c2)cc1C(=O)NCC[C@H](O)c1ccc(Cl)cc1
  IC50: 0.023 µM
